Results on one compound are retold here after ChEMBL document CHEMBL3871274 (Eur J Med Chem, 2016).

In experiment [1] the target is T1, Aurora kinase A (Homo sapiens) (UniProt O14965).
T1 sequence (whole entry): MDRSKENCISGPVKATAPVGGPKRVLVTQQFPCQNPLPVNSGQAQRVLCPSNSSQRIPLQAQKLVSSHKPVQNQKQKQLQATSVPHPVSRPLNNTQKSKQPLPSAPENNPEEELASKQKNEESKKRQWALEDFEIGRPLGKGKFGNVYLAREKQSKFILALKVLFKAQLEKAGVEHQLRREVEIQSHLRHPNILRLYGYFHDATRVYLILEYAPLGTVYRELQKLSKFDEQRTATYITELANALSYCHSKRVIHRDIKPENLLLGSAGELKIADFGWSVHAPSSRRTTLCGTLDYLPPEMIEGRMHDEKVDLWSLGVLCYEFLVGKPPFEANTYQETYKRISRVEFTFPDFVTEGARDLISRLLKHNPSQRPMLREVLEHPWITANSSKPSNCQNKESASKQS
Nature of the experiment: Inhibition of GST-tagged Aurora A (123 to 401 residues) (unknown origin) at 20 uM preincubated for 15 mins followed by tetra(LRRWSLG) substrate addition measured for 90 mins by Kinase-Glo luminescence assay. Background: Kinase-Glo reads ATP consumption through a luciferase reaction.

Experiment [2] deals with T1, Aurora kinase A (Homo sapiens). Nature of the experiment: Inhibition of GST-tagged Aurora A (123 to 401 residues) (unknown origin) at 50 uM preincubated for 15 mins followed by tetra(LRRWSLG) substrate addition measured for 90 mins by Kinase-Glo luminescence assay.

Broadly, the inhibition is how much of the control response was suppressed. Read a high inhibition as a strong effect.

Regarding `O=[N+]([O-])c1cc([N+](=O)[O-])c2cn[nH]c2c1`, the inhibition in experiment [1] was found to be 10%; in experiment [2], 22%.
